Sequences of proteins named here, by UniProt entry; tags and fusion partners are left off. A change or cut given only in a name is not applied to a line headed by its entry.
UniProt P41144: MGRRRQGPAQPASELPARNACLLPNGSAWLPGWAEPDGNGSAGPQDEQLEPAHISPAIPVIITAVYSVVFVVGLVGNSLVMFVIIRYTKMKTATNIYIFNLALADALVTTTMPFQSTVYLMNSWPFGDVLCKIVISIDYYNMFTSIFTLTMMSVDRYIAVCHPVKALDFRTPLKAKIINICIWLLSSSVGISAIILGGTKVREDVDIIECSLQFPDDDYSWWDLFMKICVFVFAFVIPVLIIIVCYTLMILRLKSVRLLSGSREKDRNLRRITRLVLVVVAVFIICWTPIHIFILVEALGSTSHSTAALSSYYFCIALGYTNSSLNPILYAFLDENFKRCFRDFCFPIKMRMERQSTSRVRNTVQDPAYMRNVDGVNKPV
UniProt Q60492, whole entry, looked up: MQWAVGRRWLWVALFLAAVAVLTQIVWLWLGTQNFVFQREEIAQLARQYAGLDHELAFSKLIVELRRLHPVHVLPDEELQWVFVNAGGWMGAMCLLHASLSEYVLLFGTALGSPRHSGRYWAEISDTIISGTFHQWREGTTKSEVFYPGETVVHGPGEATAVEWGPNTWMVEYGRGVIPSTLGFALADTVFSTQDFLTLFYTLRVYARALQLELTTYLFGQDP
UniProt P41143, whole entry, looked up: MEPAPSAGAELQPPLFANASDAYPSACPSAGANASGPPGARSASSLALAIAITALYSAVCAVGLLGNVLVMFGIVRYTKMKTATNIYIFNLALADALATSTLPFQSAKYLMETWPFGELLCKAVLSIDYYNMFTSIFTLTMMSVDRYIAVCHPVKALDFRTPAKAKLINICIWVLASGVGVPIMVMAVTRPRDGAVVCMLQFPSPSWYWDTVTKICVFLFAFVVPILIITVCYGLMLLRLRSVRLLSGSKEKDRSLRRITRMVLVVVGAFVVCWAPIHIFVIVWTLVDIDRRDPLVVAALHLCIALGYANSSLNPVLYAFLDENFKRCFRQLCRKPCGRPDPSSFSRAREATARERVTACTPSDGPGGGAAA
UniProt P35372, whole entry, looked up: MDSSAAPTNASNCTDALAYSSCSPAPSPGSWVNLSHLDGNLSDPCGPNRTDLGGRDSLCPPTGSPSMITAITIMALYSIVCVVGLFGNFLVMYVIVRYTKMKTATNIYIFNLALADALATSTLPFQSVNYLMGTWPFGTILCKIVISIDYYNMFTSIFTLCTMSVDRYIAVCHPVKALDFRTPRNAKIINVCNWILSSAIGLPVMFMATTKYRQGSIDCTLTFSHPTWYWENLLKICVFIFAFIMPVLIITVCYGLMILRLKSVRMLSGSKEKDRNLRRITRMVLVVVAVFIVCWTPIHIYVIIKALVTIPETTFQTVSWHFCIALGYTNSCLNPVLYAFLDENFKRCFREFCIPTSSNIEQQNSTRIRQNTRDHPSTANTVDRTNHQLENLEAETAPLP
UniProt P41145: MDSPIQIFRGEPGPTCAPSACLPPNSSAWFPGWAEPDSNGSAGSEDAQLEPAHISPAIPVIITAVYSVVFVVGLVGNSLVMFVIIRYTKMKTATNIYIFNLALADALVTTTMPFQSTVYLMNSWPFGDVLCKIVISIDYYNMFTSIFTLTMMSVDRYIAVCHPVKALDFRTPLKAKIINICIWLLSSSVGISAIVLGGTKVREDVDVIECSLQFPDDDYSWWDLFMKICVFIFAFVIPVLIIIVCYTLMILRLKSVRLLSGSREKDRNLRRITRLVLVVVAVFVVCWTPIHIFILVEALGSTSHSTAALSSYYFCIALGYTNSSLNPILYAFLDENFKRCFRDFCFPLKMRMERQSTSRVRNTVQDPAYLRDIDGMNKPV

According to ChEMBL document CHEMBL3297660, “Combination of cyclohexane and piperazine based κ-opioid receptor agonists: Synthesis and pharmacological evaluation of trans,trans-configured perhydroquinoxalines” (Bioorg Med Chem, 2014):

Assays:
[1] = target: Kappa-type opioid receptor (Cavia porcellus, UniProt P41144); test: Displacement of [3H]U-69593 from kappa-opioid receptor in guinea pig brain membrane
[2] = target: Sigma non-opioid intracellular receptor 1 (Cavia porcellus, UniProt Q60492); test: Displacement of [3H]-(+)-Pentazocine from sigma1 receptor in guinea pig brain membrane
[3] = target: Delta-type opioid receptor (Homo sapiens, UniProt P41143); test: Displacement of [3H]-deltorphin 2 from human delta-opioid receptor transfected in CHO-K1 cell by scintillation counting
Mu-type opioid receptor = Mu-type opioid receptor (Homo sapiens, UniProt P35372); test: Displacement of [3H]-naloxone from human mu-opioid receptor transfected in CHO-K1 cell by scintillation counting
[4] = target: Kappa-type opioid receptor (Homo sapiens, UniProt P41145); test: Agonist activity at recombinant kappa-opioid receptor in human HEK293 cells by [35S]-GTP-gammaS binding assay

Compound	Ki [1] [nM]	Ki [2] [nM]	IC50 [3] [nM]	IC50 (Mu-type opioid receptor) [nM]	EC50 [4] [nM]
CN(C(=O)Cc1ccccc1)[C@H]1CC[C@@]2(CCCO2)C[C@@H]1N1CCCC1	0.88				
COc1ccc(CN[C@H]2CCC[C@@H]3[C@@H]2NC(=O)C(=O)N3Cc2ccc(OC)cc2)cc1		368			
O=C(Cc1ccc(Cl)c(Cl)c1)N1CCN(Cc2ccccc2)[C@@H]2CCC[C@H](N3CCCC3)[C@H]21			> 1000	> 1000	490
CN(C(=O)Cc1ccc(Cl)c(Cl)c1)C1CCCCC1N1CCCC1 (stereo not drawn)	0.34				
O=C(Cc1ccccc1)N1CCN[C@@H]2CCC[C@H](N3CCCC3)[C@H]21	435		> 1000	> 1000	
O=C(Cc1ccc(Cl)c(Cl)c1)N1CCN[C@@H]2CCC[C@H](N3CCCC3)[C@H]21	2.1		> 1000	> 1000	
O=C1N[C@@H]2[C@@H](NCc3ccc(Cl)cc3)CCC[C@H]2N(Cc2ccc(Cl)cc2)C1=O		543			
COC(=O)N1CCN(C(=O)Cc2ccc(Cl)c(Cl)c2)[C@H]2[C@H]1CCC[C@@H]2N1CCCC1			> 1000	> 1000	
O=C(Cc1ccccc1)N1CCN(Cc2ccccc2)[C@@H]2CCC[C@H](N3CCCC3)[C@H]21	129		> 1000	> 1000	
